The entries are a selection whose mix differs from that of the whole data set. Calls of active or inactive are those of the source.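 Rule for the calls: active = activation above the screen-wide mean of compound activation plus 3 SD (cut at about 130% in these data); inactive = the rest.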

The nature of the assay: enhancers of STAT3 transcriptional signaling – U3A cells, luciferase, luminescence, MLSCN library, primary screen (AID 871).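 Note: 0% = background luminescence of wells with medium and substrate only.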 As to conditions: IL-6 STAT3-luciferase reporter, at 5.6 µM, active compounds read high, 100% = signal with IL-6 EC80 alone. In short, it runs like this:
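Assay system – human STAT1-deficient U3A cells with stable STAT3-luciferase reporter · Also added – IL-6 (33 ng/mL) · Schedule – compound 1 h, then IL-6 6 h at 37 °C · Technique – reporter luminescence signal · Evaluation – % activation versus median of IL-6-stimulated wells · Benchmarks – IL-6-only wells as 100% reference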
(Reporter assays use an easily measured gene product as a stand-in for the process of interest.)
In the case of `O=[N+]([O-])c1ccc2c(c1)nnn2O`, the activation (% of control) is inactive: 106%.
For the compound `CCOP1(=S)c2c(C)nn(CCC#N)c2N=C(c2ccc(F)cc2)N1C` (centres undefined), the activation (% of control) is inactive: 106%.
With `CCOP1(=S)c2c(C)nn(CCC#N)c2N=C(c2ccccc2F)N1C` (centres undefined), the activation (% of control) was inactive: 108%.
As for `O=P(Nc1nccs1)(Oc1ccccc1)Oc1ccccc1`, the figure is inactive: 87.4%; as for `O=P(Nc1nccs1)(c1ccccc1)c1nc2ccccc2s1` (centres undefined), inactive: 114%.
For `Cc1ccc(NCCc2c([N+](=O)[O-])cc([N+](=O)[O-])cc2[N+](=O)[O-])cc1`, the activation (% of control) was inactive: 86.8%.
With `COc1cc(C2NCCC3(OCCO3)C2(C)C)cc(OC)c1OC` (centres undefined), the activation (% of control) is inactive: 92%.
For the compound `CCOP(=O)(Nc1cccc2ccccc12)OCC`, the activation (% of control) was inactive: 107%.
For the compound `COc1cc(C(=O)NCC2(N3CCOCC3)CCCCC2)cc(Cl)c1OC(C)C`, the activation (% of control) was inactive: 122%.
Consider `Cc1cccc(OCC(=O)OC2CN3CCC2CC3)c1` (centres undefined), for which the activation (% of control) was inactive: 93.4%.
For the compound `CC1(CBr)Cn2c(nc3ccccc3c2=O)S1` (centres undefined), the activation (% of control) was inactive: 93%.
The value for `CC(C)/C=N\N=C(\N)N[N+](=O)[O-]` was inactive: 98.5%; that for `O=P1(Nc2ccccn2)COc2ccccc2OC1` was inactive: 104%; that for `Clc1n[nH]nc1-c1nn[nH][15n]1` was inactive: 98.4%.
For the compound `O=P1(Nc2ncccn2)COc2ccccc2OC1`, the activation (% of control) was inactive: 103%.
On to `Cc1ccc(OCC(=O)OC2CN3CCC2CC3)cc1` (centres undefined), for which the activation (% of control) is inactive: 110%.
In the case of `O=P1(Nc2ccc(Br)cn2)COc2ccccc2OC1`, the activation (% of control) was inactive: 95.2%.
On to `Cc1nn(-c2ccccc2)c2c1P(=O)(N1CCOCC1)N(C)C(c1ccccc1)=N2` (centres undefined), for which the activation (% of control) is inactive: 94.2%.
Turning to `CC1CCC(C(C)C)C(OP(=O)(Nc2ccccn2)c2ccccc2)C1` (centres undefined), the activation (% of control) is inactive: 105%.
Consider `CN(C)C1(CNC(=O)c2ccc(S(C)(=O)=O)cc2)CCCCC1`, for which the activation (% of control) was inactive: 104%.
As for `O=P(Nc1ccccn1)(c1cccc2ccccc12)c1cccc2ccccc12`, the activation (% of control) was inactive: 106%.
In the case of `Cc1cc(SC(NC=O)C(Cl)(Cl)Cl)ncn1` (centres undefined), the activation (% of control) was inactive: 103%.
As for `Cc1cc(SC(NC(=O)c2ccccc2)C(Cl)(Cl)Cl)nc(C(C)C)n1` (centres undefined), the activation (% of control) was inactive: 98.7%.
As for `CCC(C)N(CC(C)C)C(=S)SC(NC(C)=O)C(Cl)(Cl)Cl` (centres undefined), the activation (% of control) is inactive: 99.2%.
The value for `COP1(=S)c2c(C)nn(CCC#N)c2N=C(c2ccc(F)cc2)N1C` (centres undefined) was inactive: 104%; that for `O=C(COc1ccccc1)OC1CN2CCC1CC2` (centres undefined) was inactive: 101%; that for `COc1ccc(N/C(=N/P(=O)(N2CCOCC2)N2CCOCC2)N2CCOCC2)cc1` was inactive: 99.5%.
As for `O=C(OC1CN2CCC1CC2)C12CC3CC(CC(C3)C1)C2` (centres undefined), the activation (% of control) was inactive: 118%.
Take `Cc1cc(=O)[nH]c(N[N+](=O)[O-])n1`: the activation (% of control) is inactive: 104%.
Consider `Cc1c2c(nc3ccccc13)SC(C(Cl)Cl)C2` (centres undefined), for which the activation (% of control) was inactive: 78.5%.
In the case of `COc1ccc2nc(NP(=O)(c3ccccc3)c3ccccc3)sc2c1`, the activation (% of control) was inactive: 104%.
For the compound `ClCCSc1nnc(-c2cccnc2)o1`, the activation (% of control) is inactive: 106%.
As to `CC(C)NC(=O)NP(=O)(Oc1ccccc1)Oc1ccccc1`, the activation (% of control) is inactive: 110%.
`CCN(CC)C(=S)SC(NC=O)C(Cl)(Cl)Cl` (centres undefined): the activation (% of control) was inactive: 90.7%.
`O=[N+]([O-])c1cc([N+](=O)[O-])c(-c2ccn[nH]2)s1`: the activation (% of control) is inactive: 97.7%.
With `Cc1ccc2nc3c(c(C)c2c1)CC(C(Cl)Cl)S3` (centres undefined), the activation (% of control) was inactive: 87.8%.
The value for `CCN(N=Nc1nonc1N)c1nonc1N` was inactive: 101%; that for `Cc1cc(SC(NC(=O)c2ccc(F)cc2)C(Cl)(Cl)Cl)ncn1` (centres undefined) was inactive: 103%; that for `CCOP(=O)(Nc1ccccc1)OCC` was inactive: 102%.
Turning to `CC(C)CC(=O)NC(Sc1ccc(Cl)cc1)C(Cl)(Cl)Cl` (centres undefined), the activation (% of control) is inactive: 111%.
As for `Oc1ccccc1CNc1ccccn1`, the figure is inactive: 104%; as for `O=C(NC(Sc1ccncn1)C(Cl)(Cl)Cl)c1ccccc1` (centres undefined), inactive: 104%.
Regarding `Cc1c2non([O-])c-2c(C)[n+](=O)[n+]1[O-]`, the activation (% of control) is inactive: 99.4%.
For `NC(=O)c1cc([N+](=O)[O-])cc([N+](=O)[O-])c1N`, the activation (% of control) is inactive: 98.9%.
Consider `Cc1ccc(N/C(=N/P(=O)(N2CCOCC2)N2CCOCC2)N2CCOCC2)cc1`, for which the activation (% of control) is inactive: 105%.
Take `COc1ccccc1OP(=O)(Nc1ccc(C)cn1)Oc1ccccc1OC`: the activation (% of control) is inactive: 111%.
On to `CN1CCCC(OC(=O)C(c2ccccc2)c2ccccc2)C1` (centres undefined), for which the activation (% of control) is inactive: 107%.
Take `Clc1ccc(Cl)c(NC2=NCC(CBr)S2)c1` (centres undefined): the activation (% of control) was inactive: 94.4%.
Turning to `CCN(/C(=N/P(=O)(N1CCOCC1)N1CCOCC1)N1CCOCC1)c1ccc(OC)cc1`, the activation (% of control) was inactive: 95.6%.
For `CC(C)=N/N=C(\N)N[N+](=O)[O-]`, the activation (% of control) is inactive: 100%.
The value for `CN(C)C(=O)OCCc1n(C)cc[n+]1C` was inactive: 103%; that for `CC1CCN(C(=O)Oc2c(Cl)cc(Cl)c3cccnc23)CC1` was inactive: 96.5%.
Take `COc1ccc(C2=NCC(CBr)S2)cc1` (centres undefined): the activation (% of control) was inactive: 105%.
Turning to `O=[N+]([O-])c1cccc2n[nH]nc12`, the activation (% of control) was inactive: 106%.
Consider `CC(=O)N1C2C3N(C(C)=O)C1C1N(C(C)=O)C(C(N1C(C)=O)N3C(C)=O)N2C(C)=O`, for which the activation (% of control) was inactive: 98.9%.
The value for `Cc1ccc(NP(=O)(Oc2ccccc2)Oc2ccccc2)nc1` was inactive: 109%; that for `CCc1nc2c(n1)c1c(non1O)c1c2no[n+]1[O-]` was inactive: 88%.
As to `O=[N+]([O-])c1cc([N+](=O)[O-])c(CCNc2ccccc2)c([N+](=O)[O-])c1`, the activation (% of control) was inactive: 73.9%.
As for `O=[N+]([O-])c1ncn(CCn2ncnc2[N+](=O)[O-])n1`, the figure is inactive: 97.6%; as for `CC(=O)NC(SC(=S)N(C)C)C(Cl)(Cl)Cl` (centres undefined), inactive: 107%; as for `C(Cc1nn[nH]n1)Cc1nn[nH]n1`, inactive: 87.2%.
As for `O=C(OC1CN2CCC1CC2)c1cccc(Cl)c1` (centres undefined), the figure is inactive: 98%.
As for `O=P(Nc1ccccn1)(c1ccc(Br)cc1)c1ccc(Br)cc1`, the figure is inactive: 104%.
As to `CC(C)C(=O)NC(Sc1ccccc1)C(Cl)(Cl)Cl` (centres undefined), the activation (% of control) is inactive: 107%.
On to `O=P(Nc1nccs1)(c1ccccc1)c1ccccc1`, for which the activation (% of control) is inactive: 101%.
As for `c1nnnn1CCn1cnnn1`, the figure is inactive: 100%; as for `CC(=O)Nc1ccc(Oc2c([N+](=O)[O-])cc([N+](=O)[O-])cc2[N+](=O)[O-])cc1`, inactive: 94.1%; as for `O=P1(Nc2nc3ccc(Cl)cc3s2)COc2ccccc2O1` (centres undefined), inactive: 99.3%.
As to `CCOc1ccc(C2=NCC(CBr)S2)cc1` (centres undefined), the activation (% of control) is inactive: 97%.
With `CC(C)(C)C(=O)NC(Sc1ccccc1)C(Cl)(Cl)Cl` (centres undefined), the activation (% of control) was inactive: 106%.
Regarding `COC(=O)c1cc2c(s1)N=C(c1ccccc1)N(C)P2(=O)N1CCOCC1` (centres undefined), the activation (% of control) is inactive: 108%.
The value for `CC(=O)NC(SC(=S)N(CC(C)C)CC(C)C)C(Cl)(Cl)Cl` (centres undefined) was inactive: 110%; that for `Cc1ccc(OP(=O)(Nc2ccccn2)Oc2ccc(C)cc2)cc1` was inactive: 103%; that for `CCC(=O)N1C2C3N(C(=O)CC)C1C1N(C(=O)CC)C(C(N1C(=O)CC)N3C(=O)CC)N2C(=O)CC` was inactive: 95.7%.
For the compound `O=c1c2cc([N+](=O)[O-])ccc2[nH]c2c([N+](=O)[O-])cc([N+](=O)[O-])cc12`, the activation (% of control) was inactive: 51.1%.
For the compound `CCNC(=S)/N=C(\N)N[N+](=O)[O-]`, the activation (% of control) is inactive: 107%.
Regarding `O=C(NC1CCS(=O)(=O)C1)NP(=S)(Oc1ccccc1)Oc1ccccc1` (centres undefined), the activation (% of control) is inactive: 99.6%.
Regarding `c1ccc(-c2nn[nH]n2)c(-c2nn[nH]n2)c1`, the activation (% of control) is inactive: 97.2%.
The value for `CCOC(=O)NC(Sc1ccccc1)C(Cl)(Cl)Cl` (centres undefined) was inactive: 99.7%.
